The chains behind the UniProt entries cited, without tags or fusion partners. Residues count along the entry.
UniProt P56524, 655-1084 limits assumed: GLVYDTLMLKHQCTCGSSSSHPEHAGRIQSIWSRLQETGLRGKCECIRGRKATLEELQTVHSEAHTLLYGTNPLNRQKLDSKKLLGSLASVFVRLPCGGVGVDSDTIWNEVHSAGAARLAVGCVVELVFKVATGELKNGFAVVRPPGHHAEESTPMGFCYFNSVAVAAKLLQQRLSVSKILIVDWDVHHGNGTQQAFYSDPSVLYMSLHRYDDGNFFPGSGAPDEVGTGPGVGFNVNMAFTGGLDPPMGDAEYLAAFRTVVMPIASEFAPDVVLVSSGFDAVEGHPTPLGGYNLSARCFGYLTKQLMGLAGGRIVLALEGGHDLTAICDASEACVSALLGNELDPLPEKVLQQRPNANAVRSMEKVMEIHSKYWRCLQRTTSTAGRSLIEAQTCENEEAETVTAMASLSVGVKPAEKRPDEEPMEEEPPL

In article PMC4669789, “Selective inhibition of HDAC8 decreases neuroblastoma growth in vitro and in vivo and enhances retinoic acid-mediated differentiation” (Cell Death & Disease, 2015):

Molecular target: HDAC4 (Homo sapiens, UniProt P56524)
Test: In vitro HDAC activity assay (Reaction Biology)
Assay type: biochemical
Settings: cell-free; read-out: IC50 values of HDAC8 inhibitors, HDAC4
Procedure: Peptide substrate was conjugated with AMC. […] The HDAC reaction was performed at 30 °C for 2 h before adding the developer reagent. The free AMC was detected with excitation of 360 nm and emission 460 nm at kinetic mode for 90 min. IC50 values were calculated with GraphPad Prism version 3.0a (GraphPad Software Inc., San Diego, CA, USA).

COc1ccc(Cn2ccc3ccc(C(=O)NO)cc32)cc1 [PCI-34051]
IC50: > 59 µM
